Measured values as given in patent publication US11040107B2, “Dosing regimens and related compositions and methods” (Apellis Pharmaceuticals, Inc., priority 2017, dated 2021).

What was measured:
[1] = tested on: rabbit erythrocytes; conditions: serum from PNH patients; Hillmen 2004; cited from earlier work
[2] = tested on: PNH RBCs; assay: Modified Ham's assay, comparison with Soliris; type: cell-based, human
Method: Flow cytometry was performed after antibody staining using antibodies against CD59 and C3d. In this figure, quadrant 1 (Q1) and quadrant 3 (Q3) represent Type III cells. Quadrant 2 (Q2) and quadrant 4 (Q4) represent Types I and II cells. Q1 and Q2 represent cells with a significant and abnormally high amount of C3 activation product (e.g., C3d) deposition. Q3 and Q4 represent cells without significant C3d deposition or somewhat elevated level (right portion of Q4) but less so than Q2 cells.

In the case of “Eculizumab: humanized anti-C5 monoclonal antibody [reference compound]”, the “inhibition of ex vivo serum-induced hemolysis shown to be of considerable benefit in PNH” value [1] is listed as 80% and the “deposition of C3d on PNH RBCs” value [2] is listed as “significant deposition of C3 activation products”.
